Consider one compound from ChEMBL document CHEMBL1139612 (Bioorg Med Chem Lett, 2005).

Chains of the proteins cited; added tags and fusions are not shown.
UniProt P19327, whole entry: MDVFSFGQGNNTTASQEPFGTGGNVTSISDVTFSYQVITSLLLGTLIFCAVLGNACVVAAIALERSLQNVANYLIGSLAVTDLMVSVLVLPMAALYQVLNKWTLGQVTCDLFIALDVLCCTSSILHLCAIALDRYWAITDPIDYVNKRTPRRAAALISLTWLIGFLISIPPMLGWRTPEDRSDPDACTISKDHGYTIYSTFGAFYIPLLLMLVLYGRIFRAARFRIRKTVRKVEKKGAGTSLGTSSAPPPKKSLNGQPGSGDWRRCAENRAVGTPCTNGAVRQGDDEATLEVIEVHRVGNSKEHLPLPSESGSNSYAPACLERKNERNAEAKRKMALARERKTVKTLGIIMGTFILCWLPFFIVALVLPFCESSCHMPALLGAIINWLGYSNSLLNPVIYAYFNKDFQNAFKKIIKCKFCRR

As usually defined, the IC50 is the concentration that inhibits the measured activity by half. Lower therefore signals inhibition by little substance.

For this test, the target named is 5-hydroxytryptamine receptor 1A (Rattus norvegicus, UniProt P19327). Description: Inhibitory concentration against 5-hydroxytryptamine 1A receptor in rat hippocampus membrane using [3H]-8-OH-DPAT as radioligand. The format is cell membranes.

On to `Cl.O=C1c2ccccc2OC=C(Cl)N1CCCCN1CCC(O)(c2ncccn2)CC1`, for which the IC50 amounted to 2650 nM.
